Reference: US20250145561A1, “4-SUBSTITUTED-PHENYL ACETAMIDES AND ARYLUREAS AS AGONISTS FOR THE ORPHAN RECEPTOR GPR88” (RESEARCH TRIANGLE INSTITUTE, priority 2022, published 2025)

By UniProt entry, the sequences of proteins in these tests, tags left out. Where a name states a change or a piece, a line headed by the entry shows the natural chain unless it says otherwise.
UniProt Q9GZN0: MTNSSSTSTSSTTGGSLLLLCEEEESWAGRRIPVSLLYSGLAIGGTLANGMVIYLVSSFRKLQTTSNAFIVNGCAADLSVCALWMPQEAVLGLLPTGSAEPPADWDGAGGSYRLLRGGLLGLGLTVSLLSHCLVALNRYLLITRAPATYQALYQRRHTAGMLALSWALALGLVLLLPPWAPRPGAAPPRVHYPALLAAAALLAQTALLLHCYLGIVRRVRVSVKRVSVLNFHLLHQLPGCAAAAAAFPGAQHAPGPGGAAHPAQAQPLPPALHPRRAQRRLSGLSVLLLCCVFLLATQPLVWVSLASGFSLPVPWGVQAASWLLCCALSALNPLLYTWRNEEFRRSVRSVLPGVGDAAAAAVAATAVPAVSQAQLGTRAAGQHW

Biological target: GPR88 (Homo sapiens, UniProt Q9GZN0)
Experiment: Lance Ultra TR-FRET cAMP assay using stable PPLS-HA-GPR88 CHO cells
Type: cell-based
Details: 300 nM forskolin, mean ± standard error of at least three independent experiments in duplicate
Experimental: The compounds of the present disclosure offer potent agonism to the orphan receptor GPR88. As such, the compounds of the present disclosure provide therapeutic potential for the treatment of striatal associated disorders such as Parkinson's disease, schizophrenia, and alcohol addiction. All compounds were evaluated for the GPR88 agonist activity in the inventors' previously established in vitro GPR88 Lance TR-FRET cAMP assay. See, supra, Jin et al., 2018, Rahman et al., 2020, and Rahman et al., 2021. As will be described, the TR-FRET signal was converted to fmol cAMP by interpolating from the standard cAMP curve. Fmol cAMP was plotted against the log of compound concentration and data were fit to a three-parameter logistic curve to generate maximum response (Emax) and EC50 values.
Lance™ Ultra cAMP assay using stable PPLS-HA-GPR88 CHO cells. All cAMP assays were performed using the inventors' previously published methods. See, e.g., Jin et al., Effect of substitution on the aniline moiety of the GPR88 agonist 2-PCCA: synthesis, structure-activity relationships, and molecular modeling studies. ACS Chemical Neuroscience 2016, 7, 1418-1432, which is incorporated by reference herein with regard to such teaching. Stimulation buffer containing 1× Hank's Balanced Salt Solution (HBSS), 5 mM HEPES, 0.1% BSA stabilizer, and 0.5 mM final IBMX was prepared and titrated to pH 7.4 at room temperature. Serial dilutions of the test compounds (5 μL) and 300 nM forskolin (5 μL), both prepared at 4× the desired final concentration in 2% DMSO/stimulation buffer, were added to a 96-well white ½ area microplate (PerkinElmer). A cAMP standard curve was prepared at 4× the desired final concentration in stimulation buffer and 5 μL was added to the assay plate. Stable PPLS-HA-GPR88 CHO cells were lifted with versene and spun at 270 g for 10 minutes. The cell pellet was resuspended in stimulation buffer and 4,000 cells (10 μL) were added to each well except wells containing the cAMP standard curve. After incubating for 30 min at room temperature, Eu-cAMP tracer and uLIGHT-anti-cAMPworking solutions were added per the manufacturer's instructions. After incubation at room temperature for 1 hour, the TR-FRET signal (ex 337 nm) was read on a CLARIOstar multimode plate reader (BMG Biotech, Cary, NC).
Data Analysis. The TR-FRET signal (665 nm) was converted to fmol cAMP by interpolating from the standard cAMP curve. Fmol cAMP was plotted against the log of compound concentration and data were fit to a three-parameter logistic curve to generate EC50 values (Prism, version 6.0, GraphPad Software, Inc., San Diego, CA). The Emax value for each test compound relative to the control compound RTI-13951-33 was calculated with the equation % control Emax=(maximal test compound signal/maximal control signal)×100.

Compound | cAMP pEC50
CCCC(C)COc1ccc([C@H](CO)C(=O)N[C@H](C)c2ccccc2)cc1 (stereo partly drawn) [Compound 3, (2R)-3-Hydroxy-2-{4-[(2-methylpentyl)oxy]phenyl}-N-[(1 R)-1-phenylethyl]propanamide] | 5.46 ± 0.05
CCCC(C)COc1ccc([C@@H](CO)C(=O)N[C@H](C)c2ccccc2C)cc1 (stereo partly drawn) [Compound 9, (2S)-3-Hydroxy-2-{4-[(2-methylpentyl)oxy]phenyl}-N-[(1 R)-1-(2-methylphenyl)ethyl]propenamide] | 5.28 ± 0.13
CCCC(C)COc1ccc([C@@H](CO)C(=O)N[C@H](C)c2cccc(C)c2)cc1 (stereo partly drawn) [Compound 10, (2S)-3-Hydroxy-2-{4-[(2-methylpentyl)oxy]phenyl}-N-[(1 R)-1-(3-methylphenyl)ethyl]propenamide] | 6.45 ± 0.04
CCCC(C)COc1ccc([C@@H](CO)C(=O)N[C@H](C)c2ccc(C)cc2)cc1 (stereo partly drawn) [Compound 11, (2S)-3-Hydroxy-2-{4-[(2-methylpentyl)oxy]phenyl}-N-[(1 R)-1-(4-methylphenyl)ethyl]propenamide] | 6.83 ± 0.07
CCCC(C)COc1ccc([C@@H](CO)C(=O)N[C@H](C)c2ccc(F)cc2)cc1 (stereo partly drawn) [Compound 12, (2S)—N-[(1 R)-1-(4-Fluorophenyl)ethyl]-3-hydroxy-2-{4-[(2-methylpentyl)oxy]phenyl}propenamide] | 6.05 ± 0.05
CCCC(C)COc1ccc([C@@H](CO)C(=O)N[C@H](C)c2ccc(OC)cc2)cc1 (stereo partly drawn) [Compound 13, (2S)-3-Hydroxy-N-[(1 R)-1-(4-methoxyphenyl)ethyl]-2-{4-[(2-methylpentyl)oxy]phenyl}propenamide] | 6.13 ± 0.11
CCCC(C)COc1ccc([C@@H](CO)C(=O)NCc2ccccc2)cc1 (stereo partly drawn) [Compound 15, (2S)—N-Benzyl-3-hydroxy-2-{4-[(2-methylpentyl)oxy]phenyl}propenamide] | 6.23 ± 0.09
CCCC(C)COc1ccc([C@@H](CO)C(=O)NCCc2ccccc2)cc1 (stereo partly drawn) [Compound 16, (2S)-3-Hydroxy-2-{4-[(2-methylpentyl)oxy]phenyl}-N-(2-phenylethyl)propenamide] | 6.15 ± 0.06
CCCC(C)COc1ccc([C@@H](CO)C(=O)N[C@H](CC)c2ccccc2)cc1 (stereo partly drawn) [Compound 17, (2S)-3-Hydroxy-2-{4-[(2-methylpentyl)oxy]phenyl}-N-[(1 R)-1-phenylpropyl]propenamide] | 6.44 ± 0.04
CCCC(C)COc1ccc([C@@H](CO)C(=O)N[C@H](COC)c2ccccc2)cc1 (stereo partly drawn) [Compound 18, (2S)-3-Hydroxy-N-[(1 S)-2-methoxy-1-phenylethyl]-2-{4-[(2-methylpentyl)oxy]phenyl}propenamide] | 6.29 ± 0.05
CCCC(C)COc1ccc([C@@H](CO)C(=O)NC2(c3ccccc3)CC2)cc1 (stereo partly drawn) [Compound 20, (2S)-3-Hydroxy-2-{4-[(2-methylpentyl)oxy]phenyl}-N-(1-phenylcyclopropyl)propenamide] | 5.72 ± 0.08
CCCC(C)COc1ccc([C@@H](CO)C(=O)N[C@H](C)c2ccccn2)cc1 (stereo partly drawn) [Compound 21, (2S)-3-Hydroxy-2-{4-[(2-methylpentyl)oxy]phenyl}-N-[(1 R)-1-(pyridin-2-yl)ethyl]propenamide] | 5.41 ± 0.10
CCCC(C)COc1ccc([C@@H](CO)C(=O)N[C@H](C)c2ccco2)cc1 (stereo partly drawn) [Compound 22, (2S)—N-[(1 R)-1-(Furan-2-yl)ethyl]-3-hydroxy-2-{4-[(2-methylpentyl)oxy]phenyl}propenamide] | 5.99 ± 0.09
CCCC(C)COc1ccc([C@@H](CO)C(=O)N[C@H](C)c2cccs2)cc1 (stereo partly drawn) [Compound 23, (2S)-3-Hydroxy-2-{4-[(2-methylpentyl)oxy]phenyl}-N-[(1 R)-1-(thiophen-2-yl)ethyl]propenamide] | 6.29 ± 0.08
CCCC(C)COc1ccc([C@@H](CO)C(=O)N[C@@H]2C[C@H]2c2ccccc2)cc1 (stereo partly drawn) [Compound 24] | 5.39 ± 0.09
